# Assay results from PMC10818259, “Antioxidant and Inhibitory Activities of Filipendula glaberrima Leaf Constituents against HMG-CoA Reductase and Macrophage Foam Cell Formation” (Molecules, 2024).
# Biological target: T1, HMG-CoA reductase (HMGR) (Homo sapiens, UniProt P04035)
# T1 sequence (P04035 426-888 limits assumed): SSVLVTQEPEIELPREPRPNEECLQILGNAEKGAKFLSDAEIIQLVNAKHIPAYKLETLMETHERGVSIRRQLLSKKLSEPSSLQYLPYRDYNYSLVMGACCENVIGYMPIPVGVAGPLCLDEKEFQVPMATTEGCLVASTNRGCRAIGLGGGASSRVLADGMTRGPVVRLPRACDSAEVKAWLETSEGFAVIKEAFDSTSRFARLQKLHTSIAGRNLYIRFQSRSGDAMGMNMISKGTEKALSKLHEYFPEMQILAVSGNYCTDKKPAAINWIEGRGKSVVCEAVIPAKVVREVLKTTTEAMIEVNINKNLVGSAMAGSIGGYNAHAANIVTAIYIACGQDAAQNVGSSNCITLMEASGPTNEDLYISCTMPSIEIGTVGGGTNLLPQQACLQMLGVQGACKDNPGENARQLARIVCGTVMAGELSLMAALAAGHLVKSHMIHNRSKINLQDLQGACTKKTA
# Assay: HMG-CoA reductase (HMGR) inhibition assay, NADPH oxidation at 340 nm
# Type: biochemical
# Details: isolates and pravastatin; mean ± SD, n = 3
# Description: The HMGR activity assay was optimized using a 96-well microplate reader to measure nicotinamide adenine dinucleotide phosphate (NADPH) oxidation during enzyme turnover. Each well was loaded with a mixture comprising 89 μL of 50 mM sodium phosphate buffer (pH 6.8), 0.8 mM NADPH, and 2 μg of the enzyme (2–8 units/mg). To initiate the reaction, 1 μL of the test sample and 10 μL of 0.8 mM HMG-CoA were introduced to the well. As a positive control, 10 μM pravastatin was utilized, while blank DMSO served as the negative control. The activity of HMGR was assessed by monitoring the reduction in NADPH absorbance at 340 nm for a duration of 900 s at 37 °C.
smiles,measurement,value
"CC[C@H](C)C(=O)O[C@H]1C[C@H](O)C=C2C=C[C@H](C)[C@H](CC[C@@H](O)C[C@@H](O)CC(=O)O)[C@H]21 [Pravastatin, reference compound]",IC50,410 ± 50 nM
